17 compounds from US6384075B1, “Bicyclic amino derivatives and PGD2, antagonist containing them” (Shionogi & Co., Ltd., priority 1995, dated 2002) can be followed below.

Amino acid sequences for entries named in this document (tags omitted).
UniProt Q13258, whole entry: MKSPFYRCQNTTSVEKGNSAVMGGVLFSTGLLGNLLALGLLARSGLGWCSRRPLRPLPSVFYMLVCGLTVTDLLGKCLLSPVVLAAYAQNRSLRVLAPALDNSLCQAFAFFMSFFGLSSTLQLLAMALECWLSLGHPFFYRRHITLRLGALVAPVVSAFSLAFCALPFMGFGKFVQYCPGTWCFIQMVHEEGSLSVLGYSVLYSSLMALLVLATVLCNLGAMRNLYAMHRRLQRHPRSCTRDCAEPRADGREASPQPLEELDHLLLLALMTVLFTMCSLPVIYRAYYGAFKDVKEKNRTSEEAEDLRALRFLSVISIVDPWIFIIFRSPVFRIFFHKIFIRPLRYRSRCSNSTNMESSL

Molecules are shown by their SMILES.

In test [1] the test system is nasal cavity resistance (nasal occlusion model). Description: Nasal occlusion model: nasal cavity resistance after antigen (OVA) exposure in sensitized guinea pig. To be noted: 1 mg/kg (i.v.), 10 min before antigen exposure. Here is the method: Experiment Using Nasal Occlusion Model
The method used for measuring the nasal cavity resistance and evaluating the anti-nasal occlusion using a guinea pig are described below.
A 1% ovalbumin (OVA) solution was treated with ultrasonic nebulizer to obtain an aerosol. Hartley male guinea pig was sensitized by inhaling twice the aerosol for 10 min at one-week interval. Seven-day after the sensitization, the guinea pig was exposed to an antigen to initiate the reaction. Then the trachea was incised under the anesthesia with pentobarbital (30 mg/kg, i.p.) and cannulas were inserted into the trachea at the pulmonary and nasal cavity sides. The canal inserted at the pulmonary side was connected with an artificial respirator that provides 4 ml air 60 times/min. After arresting the spontaneous respiration of a guinea pig with Garamin (2 mg/kg, i.v.), air was supplied to the snout side with an artificial respirator at the frequency of 70 times/min, and the flow rate of 4 ml air/time, and the atmospheric pressure required for the aeration was measured by the use of a transducer fitted at the branch. The measurement was used as a parameter of the nasal cavity resistance. The exposure of an antigen was carried out by generating aerosol of 3% OVA solution for 3 min between the respirator and nasal cavity cannula. The test drug was injected intravenously 10 min before the antigen exposure. The nasal resistance between 0 to 30 min was measured continuously and the effect was expressed as inhibition rate to that obtained for vehicle using the AUC for 30 min (on the vertical axis, nasal cavity resistance (cm H2O), and on the horizontal axis, time (0-30 min)) as an indication.

In test [2] the target is T1, PGD2 receptor (Homo sapiens, UniProt Q13258). Description: Binding to PGD2 receptor ([3H]PGD2, human platelet membrane fraction). To be noted: read-out: Activity (binding-inhibitory activity, concentration required for 50% inhibition, IC50), 5 nM [3H]PGD2, 4° C., 90 min. Here is the method:
(1) Preparation of Human Platelet Membrane Fraction
Blood sample was obtained using a plastic syringe containing 3.8% sodium citrate from a venous of healthy volunteers (adult male and female), put into a plastic test tube and mixed gently by inversion. The sample was then centrifuged at 1800 rpm, 10 min at room temperature, and supernatant containing PRP (platelet rich plasma) was collected. The PRP was re-centrifuged at 2300 rpm, 22 min at room temperature to obtain platelets. The platelets were homogenized using a homogenizer (Ultra-Turrax) followed by centrifugation 3 times at 20,000 rpm, 10 min at 4° C. to obtain platelet membrane fraction. After protein determination, the membrane fraction was adjusted to 2 mg/ml and preserved in a refrigerator at […] until use.
(2) Binding to PGD2 Receptor
To a binding-reaction solution (50 mM Tris/HCl, pH 7.4, 5 mM MgCl2) (0.2 ml) were added human platelet membrane fraction (0.1 mg) and 5 nM [3H]PGD2 (115 Ci/mmol), and reacted at 4° C. for 90 min. After the reaction completed, the reaction mixture was filtered through the glass fiber filter paper, washed several times with cooled saline, and measured radioactivity retained on the filter paper. The specific binding was calculated by subtracting the non-specific binding (the binding in the presence of 10 μM PGD2) from the total binding. The binding-inhibitory activity of each compound was expressed as concentration required for 50% inhibition (IC50), which was determined by depicting a substitution curve by plotting the binding ratio (%) in the presence of each compound, where the binding ratio in the absence of a test compound is 100%.

For test [3], the target named is T1, PGD2 receptor. Description: Antagonistic activity against PGD2 receptor using human platelet (inhibition of PGD2-induced cAMP increase). The note with it: read-out: Inhibition of Increase of Human Platelet cAMP (IC50); washed human platelets, 0.1-2.0 μM PGD2, IBMX pre-treatment. The procedure:
Evaluation of Antagonistic Activity Against PGD2 Receptor Using Human Platelet
Peripheral blood was obtained from a healthy volunteer using a syringe in which 1/9 volume of citric acid/dextrose solution has been previously added. The syringe was subjected to centrifugation at 180 g for 10 min to obtain the supernatant (PRP: platelet rich plasma). The resultant RRP was washed 3 times with a washing buffer and the number of platelet was counted with a micro cell counter. A suspension adjusted to contain platelet at a final concentration of 5×10^8/ml was warmed at 37° C., and then subjected to the pre-treatment with 3-isobutyl-1-methylxanthine (0.5 mM) for 5 min. To the suspension was added a test compound diluted at various concentration. Ten-minute later, the reaction was induced by the addition of 0.1-2.0 μM PGD2 and, 15-minute later, stopped by the addition of HCl. The platelet was destroyed with an ultrasonic homogenizer. After centrifugation, the cAMP in the supernatant was determined by radioassay. PGD2 receptor antagonism of a drug was evaluated as follows. The inhibition rate regarding cAMP increased by the addition of PGD2 was determined at individual concentration, and then the concentration of the drug required for 50% inhibition (IC50) was calculated.

`COc1cc2c(cc1S(=O)(=O)N[C@@H]1[C@@H]3CC[C@@H](C3)[C@H]1C/C=C\CCCC(=O)O)oc1ccccc12`: in test [1], the “Inhibition Rate (%) of nasal cavity resistance (AUC 0-30 min vs vehicle)” value (shortened to “Inhibition Rate (%)”) is given as 80%. Take `COC(=O)CCC/C=C\C[C@@H]1[C@H]2CC[C@H](C2)[C@H]1NS(=O)(=O)c1ccc(Cc2ccccc2)cc1`: the IC50 on PGD2 receptor [2] is 8600 nM. In addition, in test [1], the “Inhibition Rate (%)” value turned out to be 66%. For `CC1(C)[C@H]2C[C@H](C/C=C\CCCC(=O)O)[C@@H](NC(=O)c3ccc(C#Cc4ccccc4)cc3)[C@@H]1C2`, the IC50 at PGD2 receptor [3] came out at 1520 nM.

As for `O=C(O)CCC/C=C\C[C@@H]1[C@H]2CC[C@H](C2)[C@H]1NS(=O)(=O)c1ccc2cc(-c3ccccc3)[nH]c2c1`, in test [1], the “Inhibition Rate (%)” value stood at 60%.

As to `CC1(C)[C@H]2C[C@H](C/C=C\CCCC(=O)O)[C@@H](NC(=O)c3ccc(N=Nc4ccccc4)cc3)[C@@H]1C2`, the IC50 on PGD2 receptor [3] is 940 nM. Besides, the “Inhibition Rate (%)” value in test [1] came to 60%. As for `O=C(O)CCC/C=C\C[C@@H]1[C@H]2CC[C@H](C2)[C@H]1NS(=O)(=O)c1ccc(C#Cc2ccccc2)cc1`, on PGD2 receptor [3], the IC50 was 2090 nM.

With `COC(=O)CCC/C=C\C[C@@H]1[C@H]2CC[C@H](C2)[C@H]1NS(=O)(=O)c1ccc(-c2ccc(OC)cc2)cc1`, at PGD2 receptor [3], the IC50 turned out to be 12100 nM. Regarding `CC1(C)[C@H]2C[C@H](C/C=C\CCCC(=O)O)[C@@H](NC(=O)c3ccc(Sc4ccccc4)cc3)[C@@H]1C2`, the IC50 on PGD2 receptor [2] was determined as 3 nM. For the same compound, the “Inhibition Rate (%)” value in test [1] worked out at 73%.

Turning to `CC1(C)[C@H]2C[C@H](C/C=C\CCCC(=O)O)[C@@H](NC(=O)c3ccccc3)[C@@H]1C2`, the “Inhibition Rate (%)” value in test [1] is recorded as 52%.

On to `COc1ccc(Oc2ccc(C(=O)N[C@@H]3[C@@H](C/C=C\CCCC(=O)O)C[C@H]4C[C@@H]3C4(C)C)cc2)cc1`, for which the IC50 at PGD2 receptor [3] was determined as 710 nM. On to `CN(C)c1ccc(N=Nc2ccc(S(=O)(=O)N[C@@H]3[C@@H]4CC[C@@H](C4)[C@H]3C/C=C\CCCC(=O)O)cc2)cc1`, for which the IC50 at PGD2 receptor [2] stood at 45 nM; on PGD2 receptor [3] it was 300 nM. The “Inhibition Rate (%)” value in test [1] came to 44%. As for `COC(=O)CCC/C=C\C[C@@H]1[C@H]2CC[C@H](C2)[C@H]1NS(=O)(=O)c1ccc(C=C2SC(=O)NC2=O)cc1`, on PGD2 receptor [2], the IC50 turned out to be 560 nM. Besides, in test [1], the “Inhibition Rate (%)” value is given as 50%. As to `CN(C)c1cccc2c(S(=O)(=O)N[C@@H]3[C@@H]4CC[C@@H](C4)[C@H]3C/C=C\CCCC(=O)O)cccc12`, the IC50 on PGD2 receptor [3] was 370 nM. As to `CC1(C)[C@H]2C[C@H](C/C=C\CCCC(=O)O)[C@@H](NC(=O)c3ccc(Oc4ccccc4)cc3)[C@@H]1C2`, at PGD2 receptor [2], the IC50 is 46 nM. The “Inhibition Rate (%)” value in test [1] is recorded as 54%. `CC1(C)[C@H]2C[C@H](C/C=C\CCCC(=O)O)[C@@H](NC(=O)c3ccc(/C=C\c4ccccc4)cc3)[C@@H]1C2`: the IC50 at PGD2 receptor [2] amounted to 120 nM. Regarding `CC1(C)[C@H]2C[C@H](C/C=C\CCCC(=O)O)[C@@H](NC(=O)c3ccsc3)[C@@H]1C2`, the “Inhibition Rate (%)” value in test [1] was determined as 77%. For the compound `CC1(C)[C@H]2C[C@H](C/C=C\CCCC(=O)O)[C@@H](NC(=O)c3ccc(-c4ccccc4)cc3)[C@@H]1C2`, at PGD2 receptor [3], the IC50 worked out at 770 nM.
